This is an account of results in patent US20130058910A1, “DECONTAMINATION OF CHEMICAL AND BIOLOGICAL AGENTS” (published 2013).

Protein sequences, listed by entry. Tags and fused reporters are not part of them. Lines headed by an entry give the natural chain unless they say otherwise; changes in a name come on top.
UniProt O42275: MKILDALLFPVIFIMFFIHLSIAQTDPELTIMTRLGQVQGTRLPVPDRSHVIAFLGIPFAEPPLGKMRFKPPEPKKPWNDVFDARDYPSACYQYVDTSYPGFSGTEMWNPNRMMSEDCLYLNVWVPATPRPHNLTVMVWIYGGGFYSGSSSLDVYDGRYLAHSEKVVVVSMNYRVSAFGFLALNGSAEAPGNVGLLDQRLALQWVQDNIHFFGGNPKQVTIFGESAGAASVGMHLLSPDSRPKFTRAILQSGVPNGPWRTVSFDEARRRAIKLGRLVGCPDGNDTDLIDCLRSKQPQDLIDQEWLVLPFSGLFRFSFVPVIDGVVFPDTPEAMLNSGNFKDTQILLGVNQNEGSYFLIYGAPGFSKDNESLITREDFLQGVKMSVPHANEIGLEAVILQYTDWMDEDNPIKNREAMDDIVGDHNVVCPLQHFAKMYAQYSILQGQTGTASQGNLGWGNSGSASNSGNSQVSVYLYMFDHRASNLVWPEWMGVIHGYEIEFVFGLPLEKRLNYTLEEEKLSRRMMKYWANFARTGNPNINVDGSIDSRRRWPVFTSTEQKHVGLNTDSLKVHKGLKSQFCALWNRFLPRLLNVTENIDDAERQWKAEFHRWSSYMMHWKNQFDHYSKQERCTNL

Series [1] in a line: Determination of polymer pKa (spectrophotometric). The conditions noted are these: OD345/OD280, 50 mM Tris-HCl, pH 7.4-10.3.
The target of series [2] is DFP-inhibited acetylcholinesterase (AChE) (Electrophorus electricus, UniProt O42275). As to the kind of experiment: Reactivation of DFP-inhibited AChE. The conditions noted are these: for kobs of reactivation of DFP-inhibited AChE / reactivation level, % of the initial AChE activity: 0.4 mM oxime; for rate constant kobs of reactivation (FIG. 5B legend): 0.4 mM oxime in 50 mM phosphate pH 7.4, 22° C.; for reactivation level, % of the initial AChE activity: after 24 hours.

In series [1], N-hydroxy propyl 4-PAM iodide displayed a pKa of 8.36.

With 4-PAM iodide, in series [2], the “kobs of reactivation of DFP-inhibited AChE” value was determined as 0.0034 min⁻¹; the “rate constant kobs of reactivation (FIG. 5B legend)” value is 0.0027 min⁻¹; the “reactivation level, % of the initial AChE activity” value came to 70%.

As for N-hydroxy propyl 4-PAM bromide, the pKa in series [1] came to 8.23.

With “N-hydroxyethyl 4-pyridinium aldoxime bromide”, in series [2], the “kobs of reactivation of DFP-inhibited AChE” value is 0.0027 min⁻¹; the “rate constant kobs of reactivation (FIG. 5B legend)” value was 0.0034 min⁻¹; the “reactivation level, % of the initial AChE activity” value was 70%. Further, the pKa in series [1] was found to be 8.2.
